Data: publication PMC9620001 (Journal of Medicinal Chemistry, 2022)

Sequences of proteins named here, by UniProt entry; tags and fusion partners are left off. Residues count along the entry.
UniProt P03952, 20-390 partner limits assumed: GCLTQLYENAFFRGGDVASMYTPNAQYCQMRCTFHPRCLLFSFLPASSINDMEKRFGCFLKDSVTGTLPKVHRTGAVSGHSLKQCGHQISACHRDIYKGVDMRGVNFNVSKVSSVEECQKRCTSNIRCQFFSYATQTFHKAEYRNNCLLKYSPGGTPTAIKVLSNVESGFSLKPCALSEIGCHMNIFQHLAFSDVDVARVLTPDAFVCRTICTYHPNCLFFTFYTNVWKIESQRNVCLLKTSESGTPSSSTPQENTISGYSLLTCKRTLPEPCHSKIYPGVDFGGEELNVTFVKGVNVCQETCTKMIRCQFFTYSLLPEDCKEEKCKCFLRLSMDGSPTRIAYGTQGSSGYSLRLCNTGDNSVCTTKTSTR
UniProt P03952, 391-638 limits assumed: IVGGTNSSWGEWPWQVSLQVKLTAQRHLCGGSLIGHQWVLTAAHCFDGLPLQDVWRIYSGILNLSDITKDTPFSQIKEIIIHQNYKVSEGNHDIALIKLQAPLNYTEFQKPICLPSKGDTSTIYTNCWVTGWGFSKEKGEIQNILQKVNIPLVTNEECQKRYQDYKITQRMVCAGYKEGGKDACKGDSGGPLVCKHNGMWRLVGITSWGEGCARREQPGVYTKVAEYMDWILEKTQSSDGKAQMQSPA

Biological target: Human PKa (Homo sapiens, UniProt P03952)
Format: biochemical
Conditions: not given

Row | SMILES | LLE
1 | COCc1nn(Cc2ccc(Cn3ccccc3=O)cc2)cc1C(=O)NCc1cccc(O)c1F [Compound 13g, COCc1nn(cc1C(=O)NCc1cccc(c1F)O)Cc1ccc(cc1)CN1C=CC=CC1=O] | 4.2
2 | COCc1nn(Cc2ccc(Cn3ccccc3=O)cc2)cc1C(=O)NCc1cc(OC)ccc1F [Compound 13l, COCc1nn(cc1C(=O)NCc1cc(ccc1F)OC)Cc1ccc(cc1)CN1C=CC=CC1=O] | 5.1
3 | COc1cccc(CNC(=O)c2cn(Cc3ccc(Cn4ccccc4=O)cc3)nc2N(C)C)c1F [Compound 13e, COc1cccc(c1F)CNC(=O)c1cn(nc1N(C)C)Cc1ccc(cc1)CN1C=CC=CC1=O] | 4.4

Same assay, conditions: lipophilic ligand efficiency

Row | SMILES | LLE
4 | COCc1nn(Cc2ccc(Cn3ccccc3=O)cc2)cc1C(=O)NCc1c(C#N)ccc(OC)c1F [Compound 13k, COCc1nn(cc1C(=O)NCc1c(c(ccc1C#N)OC)F)Cc1ccc(cc1)CN1C=CC=CC1=O] | 6.9
5 | COc1ccc(F)c(CNC(=O)c2cn(Cc3ccc(Cn4ccccc4=O)cc3)nc2CN(C)C)c1F [Compound 13c, COc1ccc(c(c1F)CNC(=O)c1cn(nc1CN(C)C)Cc1ccc(cc1)CN1C=CC=CC1=O)F] | 5.8
6 | COc1ccc(F)c(CNC(=O)c2cnn(Cc3ccc(Cn4ccccc4=O)cc3)c2)c1F [Compound 13a, COc1ccc(c(c1F)CNC(=O)c1cnn(c1)Cc1ccc(cc1)CN1C=CC=CC1=O)F] | 6.1
7 | COCc1nn(Cc2ccc(Cn3ccccc3=O)cc2)cc1C(=O)NCc1cccc(OC)c1F [Compound 13d, COCc1nn(cc1C(=O)NCc1cccc(c1F)OC)Cc1ccc(cc1)CN1C=CC=CC1=O] | 5.2
